From patent US20240279205A1, “NOVEL BENZIMIDAZOLE DERIVATIVE” (Carna Biosciences, Inc., priority 2020, published 2024)

Protein sequences, listed by entry. Tags and fused reporters are not part of them.
UniProt Q86WV6, whole entry H232R: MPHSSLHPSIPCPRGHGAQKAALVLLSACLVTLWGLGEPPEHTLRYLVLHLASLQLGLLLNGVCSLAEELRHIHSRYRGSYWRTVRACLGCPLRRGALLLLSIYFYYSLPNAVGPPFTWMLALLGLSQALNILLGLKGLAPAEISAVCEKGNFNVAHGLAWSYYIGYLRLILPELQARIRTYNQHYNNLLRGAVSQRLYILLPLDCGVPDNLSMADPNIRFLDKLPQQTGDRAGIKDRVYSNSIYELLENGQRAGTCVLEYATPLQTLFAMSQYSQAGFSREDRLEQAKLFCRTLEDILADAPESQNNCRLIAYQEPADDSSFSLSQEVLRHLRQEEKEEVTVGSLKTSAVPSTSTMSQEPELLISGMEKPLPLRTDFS

Molecular target: human STING (hSTING) (Homo sapiens, UniProt Q86WV6)
Test: Inhibition test of intracellular human STING (hSTING) pathway using SEAP reporter cells (HEK-Blue ISG), stimulation with Compound 3
Settings: read-out: hSTING inhibitory activity, Compound 3 10 nM stimulation, 21 hours
Experimental: Inhibition test of intracellular human STING (hSTING) pathway using reporter cells
Since STING activates the transcription factor IRF3 upon ligand stimulation, the activity of STING can be evaluated by a reporter assay using a secretory alkaline phosphatase (SEAP reporter) integrated downstream of an IRF-inducible promoter.
That is, the hSTING inhibitory activity of the test compound was evaluated using HEK-Blue™MISG cells (manufactured by Invivogen, #hkb-isg-1) incorporating a SEAP reporter. Activation of hSTING was performed by stimulation with the small molecule ligand Compound 3 as described in the literature (Ramanjulu, J. M., et al., Nature. 2018, 564 (7736), 439-443). HEK-Blue™MISG cells were seeded in a 96-well plate and cultured overnight at 37° C. in a 5% CO2 incubator. […] After collecting the culture supernatant of each well, the reporter activity was measured by color development reaction with alkaline phosphatase.
The reporter activity of the test compound non-addition and Compound 3 addition group was set to 100%, and the reporter activity of the test compound non-addition and Compound 3 non-addition group was set to 0%. The IC50 value was determined by regression analysis of the inhibitory rate determined from the reporter activity at each compound concentration and the test compound concentration (logarithm).

IC50: > 10 µM
SMILES: Cn1c(Nc2c[nH]c3ccc(Cl)nc23)nc2ccc(Br)cc21
